Data as given in PMC10213809 (Cell Reports Medicine, 2023).

Tested on: RSV
Type: cell-based, respiratory syncytial virus

IFN-β
inhibition of RSV infection: efficient inhibition
